For this experiment, the system named is HCV1b replicon. Put plainly: HCV1b replicon antiviral assay (luciferase reporter). The conditions noted are these: HCV genotype 1b replicon; read-out: HCV GT1b EC50. It is filed as cell-based. (In antiviral work, replicon cells carry a viral genome segment that copies itself.)

For “(3-(4-chloro-2-methyl-1H-imidazol-5-yl)-4-methylphenyl)(4-(4-chlorophenyl)piperidin-1-yl)methanone [Compound 42]”, the EC50 was 115 nM.

Usually EC50 stands for the concentration at which the effect is half-maximal.
